The values that follow come from paper PMC7765948, “Spadin Modulates Astrocytic Passive Conductance via Inhibition of TWIK-1/TREK-1 Heterodimeric Channels” (International Journal of Molecular Sciences, 2020).

For this assay, the system named is TWIK-1/TREK-1-mediated K^+ currents in cultured astrocytes. Nature of the assay: Whole-cell patch clamp in cultured astrocytes transfected with scrambled, TREK-1 or TWIK-1 shRNA. Format: cell-based, mouse (C57BL/6). From the text: For gene silencing in cultured astrocytes and mouse brain slices, TWIK-1 shRNA and TREK-1 shRNA were constructed and the knockdown efficiencies of these shRNAs were validated as described previously. Briefly, the target region of shRNA was as follows: mouse TWIK-1: 5′-[…]-3′; mouse TREK-1: 5′-[…]-3′. These target sequences were inserted into lentiviral pSicoR vector (Addgene okasnud #11579) and Scrambled shRNA-containing pSicoR construct was used as a control. These pSicoR vectors were transfected into primary cultured astrocytes to perform electrophysiological experiments. Transfected primary astrocytes were easily detected under a fluorescence microscope since GFP fluorescent protein is expressed from these pSicoR vectors.
Primary cortical astrocytes were prepared from one day-old male and female C57BL/6 mouse pups culture astrocytes, P1 C57BL/6 J mouse pups. The cerebral cortex was dissected free of adherent meninges, minced and dissociated into single-cell suspension by trituration through a pipette. All experimental procedures described were performed in accordance with the guidelines of Korea University (Seoul, Korea). Dissociated cells were plated onto either 12 mm glass coverslips or six-well plates coated with 0.1 mg/mL Poly-D-Lysine (PDL). Cells were grown in Dulbecco’s modified Eagle’s medium (DMEM, ThermoFisher, Waltham MA, USA) supplemented with 10% heat-inactivated fetal bovine serum, 10% heat-inactivated horse serum, and penicillin–streptomycin. Cultures were maintained at 37 °C in a humidified 5% CO2 incubator. On the third day of culture, cells were washed by repeated pipetting and the media was replaced to remove debris and other floating cells. On the next day (fourth day of culture), the cells were replaced onto glass coverslips (1 × 104 per coverslip) coated with 0.1 mg/mL PDL. During this procedure, cultured astrocytes were transfected with various shRNAs or gRNAs with an optimized voltage protocol (1100 V, 20 pulse width ms, 2 pulses number) using the Neon Electroporation instrument (ThermoFisher, Waltham, MA, USA).
Cultured astrocytes were plated onto coverslips for electrophysiological experiments. The standard solution for the pipette contained (in mM): 150 KCl, 1 CaCl2, 1 MgCl2, 5 EGTA, and 10 HEPES (pH 7.2, adjusted with KOH). Standard bath solution contained (in mM): 150 NaCl, 3 KCl, 2 CaCl2, 1 MgCl2, 10 HEPES, 5.5 D-glucose, and 20 sucrose (pH 7.4, adjusted with NaOH). Patch pipettes were made from borosilicate glass capillaries (Warner Instruments, Washington, DC, USA). The pipette resistance was 5–6 MΩ. Whole-cell currents were recorded using a patch clamp amplifier (Axopatch 700B, Axon Instruments, Union City, CA, USA). Current–voltage relations were measured by applying ramped pulses (from −150 mV to +50 mV over 1000-ms) from a holding potential of −60 mV. A Digidata 1550 A interface (Axon Instruments, Union City, CA, USA) was used to convert digital–analog signals between the amplifier and computer. Data were sampled at 5 kHz and filtered at 1 kHz. Currents were analyzed with Clampfit software (Axon Instruments, Union City, CA, USA). […] Different concentrations of spadin were sequentially bath-applied from low concentration to high concentration by switching solenoid valves using a gravity-fed perfusion system (VC-6M, Harvard Apparatus, Holliston, MA, USA). Whole-cell currents were recorded after 2 min when spadin-contained bath solutions were exchanged. All experiments were conducted at room temperature of 20–22 °C.
All data are presented as means ± standard error of the mean (s.e.m). The significance of data for comparison was assessed by Student’s t-test (paired t-test) or one-way ANOVA followed by Turkey’s post hoc test, and significance levels are given as: n.s: not significant, * p < 0.05, ** p < 0.01, *** p < 0.001, and **** p < 0.0001. […]
In general terms: In patch-clamp work, channel activity is measured electrically.

Setting [1] is: TREK-1 shRNA astrocytes, 10 µM spadin.

As for `CC[C@H](C)[C@H](NC(=O)[C@@H]1CCCN1C(=O)CNC(=O)[C@H](CO)NC(=O)[C@H](Cc1c[nH]c2ccccc12)NC(=O)[C@H](CCCNC(=N)N)NC(=O)[C@@H]1CCCN1C(=O)[C@H](CC(C)C)NC(=O)[C@@H]1CCCN1C(=O)[C@H](C)NC(=O)[C@@H](N)Cc1ccc(O)cc1)C(=O)NCC(=O)N[C@H](C(=O)N[C@@H](CO)C(=O)N[C@@H](Cc1c[nH]c2ccccc12)C(=O)NCC(=O)N[C@@H](CC(C)C)C(=O)N[C@@H](CCCNC(=N)N)C(=O)O)C(C)C` [spadin], the “K^+ conductance with spadin” value by setting is: (Sc shRNA control astrocytes (TREK-1 shRNA experiment), 10 µM spadin) “dramatically reduced currents in control cells”; (Sc shRNA control astrocytes (TWIK-1 shRNA experiment)) “drastically reduced”; under setting [1], “did not affect K^+ conductance”; (TWIK-1 shRNA astrocytes) “did not affect K^+ conductance”. Also, the “spadin-sensitive K^+ conductance” value under setting [1] is given as “almost negligible”; the “spadin-sensitive K^+ conductance” value (TWIK-1 shRNA astrocytes) is listed as “almost disappeared”; the “spadin-sensitive K^+ conductance” value (double KD of TREK-1 and TWIK-1) is “mostly disappeared”. In addition, for the setting “double KD of TREK-1 and TWIK-1”, the “further current reduction by spadin” value is “did not cause any further current reduction”.
